Source: US8497349B2, “Use of multivalent synthetic ligands of surface nucleolin for treating cancer or inflammation” (Centre National de la Recherche Scientifique (CNRS), priority 2006, dated 2013)

What was measured:
NIH-3T3 cells = format: cell-based
Method: FIG. 3. Effect of A. anti-nucleolin (anti Nu), B. isotypical IgG, C. peptide F3, and D. HB-19 on the proliferation of NIH-3T3 cells stimulated by HARP. Quiescent NIH-3T3 cells are stimulated or not by 4 nM of HARP in the presence or not of HB19 at the concentrations indicated. After 24 hours of incubation, cell proliferation was determined by measuring the incorporation of tritiated thymidine. The results are given as a percentage with respect to the control stimulated by HARP (100%). MSD (threshold), (**p<0.01 and ***p<0.001).
FIG. 4. Effect of pretreatment of NIH-3T3 cells with HB19 for one hour on proliferation induced by HARP. NIH-3T3 cells were treated with HB19 for one hour then washed and stimulated or not by 3.6 nM of HARP. After 24 hours of incubation, cell proliferation was determined by measuring the incorporation of tritiated thymidine. The results are given as a percentage with respect to the control stimulated by HARP (100%). MSD (threshold), (**p<0.01 and ***p<0.001).
FIG. 12. Effect of HB-19 and Nucant 01 on the growth of NIH-3T3 cells stimulated by HARP. Quiescent NIH-3T3 cells were stimulated or not by 4 nM of HARP in the presence of HB19 or Nucant 01 at the concentrations indicated. After 24 hours of incubation, cell proliferation was determined by measuring the incorporation of tritiated thymidine. The results (mean of 3 points) are given as the percentage of cell proliferation with respect to the control stimulated by HARP in the absence of HB19 and Nucant 01 (100% cell proliferation).
FIG. 13. Effect of HB-19, Nucant 2 and Nucant 3 on the growth of NIH-3T3 cells stimulated by HARP. Quiescent NIH-3T3 cells were stimulated or not by 4 nM of HARP in the presence of HB19, Nucant 2 or Nucant 3 at the concentrations indicated (0.1, 0.25 and 0.5>M). After 24 hours of incubation, cell proliferation of NIH-3T3 cells was determined by measuring the incorporation of tritiated thymidine. The results (mean of 3 points) are given as the percentage of cell proliferation with respect to the control stimulated by HARP (100% cell proliferation). The IC50 concentrations (concentration leading to 50% inhibition of cell proliferation with respect to the control stimulated by HARP) are also given.
The role played by nucleolin in the biological activity of the HARP molecule was studied in a series of experiments: the mitogenic activity of HARP, tested by measuring the incorporation of tritiated thymidine by NIH 3T3 cells, was evaluated in the presence or absence of a monoclonal antibody which specifically recognizes nucleolin.
The effect of Nucant 01 on the proliferation of NIH-3T3 cells stimulated by HARP was compared with that of pentavalent compound HB-19. Quiescent NIH-3T3 cells were stimulated or not by 4 nM of HARP in the presence of HB19 or Nucant 01 at the concentrations indicated (0.1, 0.2, 0.4, 1, 2 and 4 μM). After 24 hours of incubation, cell proliferation of NIH-3T3 cells was determined by measuring the incorporation tritiated thymidine as described earlier.
The effect of Nucant 2 and Nucant 3 on the proliferation NIH-3T3 cells triggered by HARP was compared to that of pentavalent compound HB-19. Quiescent NIH-3T3 cells were stimulated or not by 4 nM by HARP in the presence of HB19, Nucant 2, or Nucant 3 at the concentrations indicated (0.1, 0.25 and 0.5 μM). After 24 hours of incubation, cell proliferation of NIH-3T3 cells was determined by measuring the incorporation tritiated thymidine as described earlier.

CAM vessels = test: Ex vivo angiogenesis model, chorio-allantoic membrane (CAM) of chicken embryo; settings: 10 μM; 48 hours of incubation
Method: FIG. 17. Inhibition of angiogenesis in an ex vivo CAM model. 20 μl of water containing or not (control) HB-19 (10 μM; 0.6 μg) or Nucant 7 (10 μM; 0.8 μg) are deposited on the surface of CAM. Observation of vessels is carried out after 48 hours of incubation.
The effect of HB-19 and Nucant 7 on angiogenesis was tested in an ex vivo model of angiogenesis, the chorio-allantodoin membrane (CAM) of chicken embryo.
20 μl of water containing or not (control) HB-19 (10 μM; 0.6 μg) or Nucant 7 (10 μM; 0.8 μg) are deposited on the surface of CAM. Observation of vessels was carried out after 48 h of incubation

IL-6 = IL-6 production by human primary PBMC stimulated by heat-killed Staphylococcus aureus (ELISA); format: cell-based; settings: 10 μM; 10^8 HKSA/ml particles; 20 hours
Method: FIG. 22. Inhibition by HB-19 of the production of TNF-α and IL-6 by primary human mononuclear peripheral blood cells (PBMC) stimulated by Staphylococcus aureus bacteria inactivated by heat (HKSA, <<heat-killed Staphylococcus aureus>>). PBMCs were isolated by centrifugation on a Ficoll density gradient using whole human blood EDTA-potassium and resuspended in RPMI 1640 containing 1% human serum AB (Invitrogen). Cells at a concentration of 10^6 cell/0.5 ml, in the absence (control) or presence (10 μM) of HB-19, Nucant 3, Nucant 6 or Nucant 7 or Dexamethasone (Dex. 1 μg/ml), were stimulated with 10^8 HKSA/ml particles (InvivoGen, San Diego, USA). PBMC cultures were incubated at 37° C. in an incubator with 5% CO2 and TNF-α (A) and IL-6 (B) levels were measured by ELISA in culture supernatants collected after 20 hours of incubation.
The inventors therefore measured TNF-α and IL-6 levels in human primary PBMC cultures in response to Staphylococcus aureus bacteria inactivated by heat (HKSA, <<heat-killed Staphylococcus aureus>>), in the absence (control) or presence of 10 μM of the compounds HB-19, Nucant 3, Nucant 6, or Nucant 7. As the positive control (Dex.), PBMC was also treated with dexamethasone which is a glucocorticosteroid with known anti-inflammatory and immunosuppressant activity. […]

## CCCC[C@H](NC(=O)[C@H](CCCCNC(=O)[C@H](CCCNC(=N)N)NC(=O)[C@@H]1CCCN1C[C@@H](N)CCCCN)NC(=O)[C@H](CCC(=O)O)NC(=O)[C@H](CCCCNC(=O)[C@H](CCCNC(=N)N)NC(=O)[C@@H]1CCCN1C[C@@H](N)CCCCN)NC(=O)[C@@H]1CCCN1C(=O)CNC(=O)[C@H](CCCCNC(=O)[C@H](CCCNC(=N)N)NC(=O)[C@@H]1CCCN1C[C@@H](N)CCCCN)NC(=O)[C@H](CCCCN)NC(=O)[C@H](CCCCNC(=O)[C@H](CCCNC(=N)N)NC(=O)[C@@H]1CCCN1C[C@@H](N)CCCCN)NC(=O)[C@H](CCCNC(=N)N)NC(=O)[C@@H]1CCCN1C[C@@H](N)CCCCN)C(N)=O [HB19, 5[Kpsi(CH2N)PR]-TASP]
NIH-3T3 cells; 4 nM HARP, experiment of FIG. 12, read-out: concentration leading to 50% inhibition of cell proliferation
  IC50: 200 nM
NIH-3T3 cells; 0.5 μM of HB-19, 24 hours
  inhibition of the effect triggered by 4 nM of HARP: 81%
NIH-3T3 cells; 24 h
  IC50: 100 nM
NIH-3T3 cells; cells pretreated for one hour, washed, then stimulated by HARP
  inhibition of HARP-induced proliferation after pretreatment: comparable inhibition
CAM vessels
  inhibition of angiogenesis compared to the control (image analysis): ~50%
IL-6
  inhibition of IL-6 production: significant inhibition

Like-named read-outs stand apart in the source and are kept apart here.
